# Binding of CDR-mutated scFvs to a peptide of the spike HR2 region

The target is the same throughout: PDVDLGDISGINAS, from the HR2 region of SARS-CoV-2 spike.

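The starting antibody came from a phage panning campaign against this peptide. AAYL50 was designed without a model: most single CDR substitutions and a random sample of double and triple ones. The assay is AlphaSeq: two haploid yeast populations carry antibody and antigen on their surface. The frequency of each diploid, read from paired DNA barcodes, reflects how well the two displayed proteins bind. Each replicate has its own calibration line, from reference interactions of the BCL2 family. There are three technical replicates.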

The variants keep the heavy chain, the linker and the frameworks of Ab-14 (scFv order VH, the linker GGGGSGGGGSGGGGS, VL).
VH: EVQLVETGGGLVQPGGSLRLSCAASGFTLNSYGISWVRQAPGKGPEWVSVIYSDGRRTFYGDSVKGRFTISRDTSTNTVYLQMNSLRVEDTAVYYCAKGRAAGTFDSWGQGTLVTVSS
VL: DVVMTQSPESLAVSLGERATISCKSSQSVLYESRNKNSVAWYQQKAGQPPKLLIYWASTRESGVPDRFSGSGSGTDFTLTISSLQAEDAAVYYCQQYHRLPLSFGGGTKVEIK

Changes read parent residue, position, new residue, counted from the first residue of the VL shown.
Scale: log10 of Kd in nM, estimated from mating counts; low values are strong binders.
"ND" means that the variant was in the library but no mating with the target was seen in that replicate; the authors take this as a sign of poor binding, and no number exists.
Nonspecific signal, from three strains lacking the peptide, appeared in 18% of pairings of library AAYL50, centred on 4.19 (5% of these signals below 2.99); values are not corrected for it. For each scFv, signals with the empty controls are counted beside the result, with their mean in brackets.
Parent in this assay: reference entry 0.65, copy in this library 1.68.

| # | changes | log10 Kd, replicates | control signals |
|---|---|---|---|
| 1 | Q95E/L100P | 2.61 2.38 1.88 | 4 of 9 (4.10) |
| 2 | S28T/S38E/Q95R | 2.96 ND ND | 1 of 9 (2.15) |
| 3 | V29T/S62H/Y97L | 1.79 3.32 2.16 | 1 of 9 (5.49) |
| 4 | S25E/S62Q/Y97A | ND ND ND | 0 of 9 |
| 5 | V39P/A40H/S58W | 3.09 ND ND | 0 of 9 |
| 6 | S25T/S58I/L100A | ND ND ND | 0 of 9 |
| 7 | Y31F/N37L/P101D | 4.04 ND ND | 2 of 9 (3.33) |
| 8 | K24P/S28H/R60N | ND 3.71 ND | 1 of 9 (3.60) |
| 9 | S25V/N37H/T59Y | 0.69 0.79 0.66 | 1 of 9 (3.28) |
| 10 | K24M/N35G/L102Q | ND ND ND | 0 of 9 |
| 11 | N37K/Q96T | 3.51 ND 3.67 | 3 of 9 (3.51) |
| 12 | K36P/T59N/Q96M | 3.11 3.42 ND | 1 of 9 (3.73) |
| 13 | A57V/H98M | 1.63 1.79 1.92 | 4 of 9 (5.48) |
| 14 | Y31T/W56G/L102Y | 2.21 2.49 2.22 | 1 of 9 (3.16) |
| 15 | N37L/R60H/H98W | ND ND ND | 3 of 9 (3.81) |
| 16 | R34Y/S62T/S103M | 0.45 0.72 0.65 | 3 of 9 (4.25) |
| 17 | S38G/L102Q | 4.88 3.52 ND | 2 of 9 (4.05) |
| 18 | A57G/E61W/H98D | 2.19 1.82 2.09 | 5 of 9 (4.37) |
| 19 | S38Y/S62D/S103L | 2.56 2.90 2.85 | 1 of 9 (3.10) |
| 20 | V29A/V39F | 2.25 2.23 2.40 | 5 of 9 (4.81) |
| 21 | R34P/Q95L/S103C | 4.51 ND ND | 3 of 9 (3.71) |
| 22 | S28W/R99I | 1.45 1.74 1.42 | 3 of 9 (4.28) |
| 23 | V39I/S58R/S103L | ND ND ND | 0 of 9 |
| 24 | R34Q/N35S/L102Y | 1.93 1.62 1.53 | 1 of 9 (4.19) |
| 25 | K24T/R34W/A57H | ND ND ND | 1 of 9 (3.91) |
| 26 | N37M/E61P/Y97D | ND ND ND | 1 of 9 (3.57) |
| 27 | S26C/S28E/L102A | ND 2.76 ND | 3 of 9 (3.93) |
| 28 | K24G/A40C/W56I | ND 4.11 ND | 5 of 9 (4.23) |
| 29 | E32H/L100P/L102E | 5.17 4.07 4.86 | 6 of 9 (4.48) |
| 30 | S38R/Q96C/P101L | ND ND ND | 0 of 9 |
| 31 | R34N/N35W/A40R | 5.20 ND ND | 0 of 9 |
| 32 | S33D/Q95C/S103V | 3.04 5.25 2.92 | 2 of 9 (3.70) |
| 33 | K36N/S38E/L102D | ND ND ND | 0 of 9 |
| 34 | S26M/A40N/S103R | ND 4.53 ND | 2 of 9 (4.08) |
| 35 | V39C/P101Y/L102W | ND ND ND | 1 of 9 (3.65) |
| 36 | V39W/S62Y/Q96S | 4.07 ND 4.68 | 2 of 9 (3.83) |
| 37 | S25V/S33T/S62L | 0.03 0.22 0.08 | 1 of 9 (4.50) |
| 38 | V29N/E32M/S58M | 3.47 3.11 3.70 | 2 of 9 (4.13) |
| 39 | K24D/Q96R | 4.32 4.91 ND | 3 of 9 (4.48) |
| 40 | R60F/Y97M/L102N | ND ND ND | 0 of 9 |

Top 6 of the variants detected in all replicates, tightest first:

| changes | log10 Kd, replicates | control signals |
|---|---|---|
| S25V/S33T/S62L | 0.03 0.22 0.08 | 1 of 9 (4.50) |
| R34Y/S62T/S103M | 0.45 0.72 0.65 | 3 of 9 (4.25) |
| S25V/N37H/T59Y | 0.69 0.79 0.66 | 1 of 9 (3.28) |
| S28W/R99I | 1.45 1.74 1.42 | 3 of 9 (4.28) |
| R34Q/N35S/L102Y | 1.93 1.62 1.53 | 1 of 9 (4.19) |
| A57V/H98M | 1.63 1.79 1.92 | 4 of 9 (5.48) |

Data: MIT Lincoln Laboratory AlphaSeq set, Engelhart et al. 2022, doi:10.1038/s41597-022-01779-4, as distributed in FLAb.